The target in this assay is T1, Potassium channel subfamily K member 2 (Homo sapiens, UniProt O95069).
T1 sequence (O95069 whole entry): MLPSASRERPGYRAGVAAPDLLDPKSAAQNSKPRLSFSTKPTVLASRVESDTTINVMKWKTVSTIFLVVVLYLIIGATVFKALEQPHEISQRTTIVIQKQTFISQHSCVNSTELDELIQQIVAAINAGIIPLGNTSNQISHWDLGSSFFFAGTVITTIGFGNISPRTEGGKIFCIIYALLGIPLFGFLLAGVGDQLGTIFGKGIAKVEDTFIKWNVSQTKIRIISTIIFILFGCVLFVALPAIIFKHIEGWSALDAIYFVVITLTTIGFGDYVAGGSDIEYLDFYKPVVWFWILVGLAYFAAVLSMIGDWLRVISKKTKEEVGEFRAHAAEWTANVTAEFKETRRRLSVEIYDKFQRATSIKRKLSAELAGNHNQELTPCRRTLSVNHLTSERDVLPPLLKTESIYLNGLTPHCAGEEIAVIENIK
Briefly: The hTREK1 stable cell lines were seeded at a density of 10 000 cells/well in a 12-well plate. Whole-cell membrane currents were amplified using the Axopatch 200A patch-clamp system. Currents were elicited by 1-second voltage ramps descending from +50 mV to -150 mV (from a holding potential of -70 mV). […] Data were sampled at 5 kHz and filtered at 2 kHz. Cell membrane capacitance was measured using the 'membrane test' protocolbuilt into pClampex. The bath solution contained (in mM) 150 NaCl, 10 HEPES, 3 KCl, 2 CaCl2, 2 MgCl2, and 5.5 glucose adjusted to pH 7.3 with NaOH. […] All experiments were performed at a room temperature of 20-22 °C. TREK1 currents were recorded in the presence of each 10 μm hit compounds. The block percentage of inhibitors was obtained by measuring the percentage of remaining current. In general terms: Patch clamp records ionic current or voltage across a cell membrane.

The EC50 is the concentration giving half of the maximal effect. For the compound `OCCN1CCN(CCC=C2c3ccccc3Sc3ccc(C(F)(F)F)cc32)CC1` [CAS_53772-85-3], the EC50 was determined as 2 µM.
